Results on one compound are retold here after patent US20250296955A1, “PIN1 TARGETING COMPOUNDS AND DEGRADERS AND METHODS THEREOF” (The Regents of the University of California, priority 2024, published 2025).

Sequences of proteins named here, by UniProt entry; tags and fusion partners are left off.
UniProt Q13526, whole entry: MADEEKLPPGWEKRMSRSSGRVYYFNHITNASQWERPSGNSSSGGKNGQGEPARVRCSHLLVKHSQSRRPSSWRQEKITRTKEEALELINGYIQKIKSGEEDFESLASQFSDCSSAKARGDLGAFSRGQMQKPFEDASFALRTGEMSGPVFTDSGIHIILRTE

In assay [1] the target is T1, Pin1 (Homo sapiens, UniProt Q13526). The experiment in a line: PIN1 degradation in pancreatic cancer cell lines. It is filed as cell-based. The conditions noted are these: read-out: DC50s, PIN1 degradation in cell; pancreatic cancer cell lines tested (FIG. 16). The method, then:
FIGS. 15A-15E. The agents also cause PIN1 degradation in the pancreatic cancer cell line BxPC3 (FIG. 15A), MiaPaca-2 (FIG. 15B), or PANC-1 (FIG. 15C). In the example, cells were treated with 0.1% DMSO or 15 μM of the reported agents for 24 h and PIN1 levels were quantified. Compounds 158H9 and 164A10 are potent PIN1 binders with IC50 values of 21.5 and 4.1 nM, respectively (FIG. 15D). The agents also cause thermal destabilization of PIN1 with ΔTm values of −8.41 and −8.95° C., respectively (FIG. 15E).
FIG. 16. […] 164B8 retains its PIN1 binding affinity (DELFTA assay IC50 4.85 nM) and PIN1 degradation in cell (DC50s˜500 nM in the pancreatic cancer cell lines tested. Cell killing is improved likely due to improved cell permeability associated with the N-methylation as shown for MiaPaca2 and KPC cell lines (EC50 8.4 μM and 5.3 μM, respectively.
At the end of the treatments, cells were lysed with a lysis buffer containing 20 mM Tris, pH 7.4, 120 mM NaCl, 1% Triton X-100, 0.5% sodium deoxycholate, 0.1% SDS, 1% IGEPAL, 5 mM EDTA, protease inhibitor cocktail and PhosSTOP (Sigma-Aldrich). Lysates were then centrifuged at 16,000×g for 20 min at 4° C. and supernatants were collected. Protein concentrations were determined using the Pierce BCA Protein Assay Kit (ThermoFisher Scientific) according to the manufacturer's instruction. […]

Assay [2] addresses T1, Pin1. The experiment in a line: DELFIA displacement assay (displacement of biotinylated D-peptide from 6His-Pin1). The following applies: read-out: DELFIA IC50; running text and figure legends.

As to `CNC(=O)C(Cc1c[nH]c2ccccc12)NC(=O)C1CCCCN1C(=O)C(Cc1c[nH]c2cc(Cl)ccc12)NC(=O)CCl` (centres unmarked), at Pin1 [1], the EC50 was 500 nM. Also, the half-inhibitory concentration (IC50) – broadly, the point on the concentration scale where inhibition reaches its midpoint – at Pin1 [2] worked out at 4.85 nM.
